Laboratory results: article PMC11597202, “Novel Thiazole-Fused [4,5-g] or [5,4-g]Quinazolin-8-ones and Their Quinazoline Analogues: Synthesis and Biological Evaluation” (Pharmaceuticals, 2024)

Legend:
Assay type in all cases: biochemical
DYRK1A = biological target: T1, DYRK1A (Homo sapiens, UniProt Q13627); assay: ADP-Glo kinase inhibition assay, DYRK1A; conditions: read-out: Residual activity DYRK1A
T1 construct: host or cells: Sf9 insect cells (baculovirus)

CK-1ε = biological target: T2, CK-1ε (Homo sapiens, UniProt P49674); assay: ADP-Glo kinase inhibition assay, CK-1ε; conditions: read-out: Residual activity CK-1ε
T2 construct: host or cells: Sf9 insect cells (baculovirus)
Protocol: (§1) Kinase enzymatic activities were assayed in 384-well plates using the ADP-Glo^TM assay kit (Promega, Madison, WI, USA) according to the recommendations of the manufacturer. This luminescent ADP detection assay was described by Zegzouti and co-workers and provides a homogeneous and high-throughput screening method to measure kinase activity by quantifying the amount of ADP produced during a kinase reaction. Briefly, the reactions were carried out in a final volume of 6 µL for 30 min at 30 °C in an appropriate kinase buffer (10 mM MgCl2, 1 mM EGTA, 1 mM DTT, 25 mM Tris-HCl pH 7.5, 50 µg/mL heparin), with peptide or protein as substrate in the presence of 10 µM ATP. Peptide substrates were obtained from ProteoGenix (Schiltigheim, France) or Sigma for Histone H1, Poly (L-glutamic acid–L-tyrosine) sodium salt, Casein and MBP. After that, 6 µL of ADP-Glo^TM Kinase Reagent was added to stop the kinase reaction. […] The transmitted signal was measured using the Envision (PerkinElmer, Waltham, MA, USA) microplate luminometer and expressed as Relative Light Units (RLUs). Kinase activities are expressed as percentages of remaining kinase activities detected after treatment with 1 or 10 µM of the tested compounds. The maximum kinase activity was measured in the absence of inhibitor but with an equivalent dose of DMSO (solvent of the tested compounds). […]

GSK-3β = biological target: T3, GSK-3β (Homo sapiens, UniProt P49841); assay: ADP-Glo kinase inhibition assay, GSK-3β; conditions: read-out: Residual activity GSK-3β
T3 construct: host or cells: Sf9 insect cells (baculovirus)
Protocol: as §1

SMILES: COC(=N)c1nc2ccc3ncnc(Nc4ccc(OC)cc4F)c3c2s1 [Compound II, methyl 9-[(2-fluoro-4-methoxyphenyl)amino]thiazolo[5,4-f]quinazoline-2-carbimidate, reference compound]
- remaining activity at 1 µM (DYRK1A): 16%
- remaining activity at 1 µM (CK-1ε): 44%
- remaining activity at 10 µM (CK-1ε): 19%
- remaining activity at 1 µM (GSK-3β): 29%
- remaining activity at 10 µM (GSK-3β): 13%
